Measured values taken from PubChem BioAssay AID588453 (National Center for Advancing Translational Sciences (NCATS), 2011).
Only a part is listed here, and it is no random draw. Inconclusive results are not listed. Active and inactive are the calls of the source. The call rests on the fitted dose curve; in most records, active means well fitted inhibition curve with a large enough effect; inconclusive means small, poorly fitted or top-dose-only effect; inactive means no such curve, though single readings can be large or run the other way.

Chains of the proteins cited; added tags and fusions are not shown.
UniProt O89049, whole entry, looked up: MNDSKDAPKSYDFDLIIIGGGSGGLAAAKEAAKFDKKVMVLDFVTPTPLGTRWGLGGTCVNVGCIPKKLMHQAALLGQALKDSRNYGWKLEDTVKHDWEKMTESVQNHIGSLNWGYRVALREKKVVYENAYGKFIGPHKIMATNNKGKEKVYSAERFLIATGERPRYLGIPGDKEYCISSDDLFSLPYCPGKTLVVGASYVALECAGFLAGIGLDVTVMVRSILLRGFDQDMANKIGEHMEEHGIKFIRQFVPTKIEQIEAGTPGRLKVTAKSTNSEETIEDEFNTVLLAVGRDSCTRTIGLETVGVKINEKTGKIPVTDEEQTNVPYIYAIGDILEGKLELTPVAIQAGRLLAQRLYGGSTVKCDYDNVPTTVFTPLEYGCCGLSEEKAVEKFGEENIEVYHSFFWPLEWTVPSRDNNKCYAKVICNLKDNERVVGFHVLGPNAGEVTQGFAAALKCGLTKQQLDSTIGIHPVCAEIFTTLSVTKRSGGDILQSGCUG

molecular target: Thioredoxin reductase 1, cytoplasmic (Rattus norvegicus) (UniProt O89049); test: qHTS Assay for Inhibitors of Mammalian Selenoprotein Thioredoxin Reductase 1 (TrxR1): qHTS; settings: recombinant rTrxR1, NADPH fluorescence consumption, selenite substrate; further: nearly all actives have a fitted effect of over 65% in size
Excerpt: The selenoprotein thioredoxin reductase (TrxR; EC 1.8.1.9) is a FAD containing homodimeric pyridine nucleotide-disulfide oxidoreductase with many cellular roles. Together with NADPH and its prime substrate thioredoxin (Trx), the enzyme forms the core of the Trx system. The mammalian Trx system exerts a wide spectrum of functions including redox regulation, antioxidant defense, regulation of transcription factors as well as support of cell growth and replication. Many of these functions involve the reduction of Trx, which may subsequently reduce a number of different substrates including ribonucleotide reductase, peroxiredoxins or NFkB. […]
This BioAssay is a validation of an NADPH fluorescence-based, dual-purpose qHTS rTrxR1 assay designed to find potential inhibitors and substrates of rTrxR1. […]
Assay protocol: 2 uL of reagents (buffer in column 4 as negative control and 90 nM rTrxR1 in columns 1-3 and 5-48) were dispensed into Greiner black solid-bottom 1,536-well assay plates, followed by 1 uL of NADPH (400 uM final concentration) to each well. […] The plate was immediately transferred to a ViewLux high-throughput CCD imager (PerkinElmer), wherein kinetic measurements of NADPH fluorescence (Ex 340 nm, Em 450 nm) were acquired (8 minute kinetic read, see Table 1). […]
Potency means the concentration at half of the fitted maximal effect.

| Compound | Potency |
| --- | --- |
| CC[n+]1c(/C=C/N(C)c2ccccc2)oc2ccc(Cl)cc21 | active: 70.8 µM |
| CC1(C)N([O-])c2cc([N+](=O)[O-])ccc2[N+]1=O | active: 39.8 µM |
